# A549 tox: kills or reduces viability of A549 cells in Nrf2 counter-screen; A549 ARE-Fluc cells, CellTiter-Fluor viability, 18-24 h; Potency, µM (doses to about 46 µM), without a hit: top-dose activity change, negative = cytotoxicity, hits mostly inhibitors; hit rate 0.16% among 390,000; AID 504648; also: potency is read from the fitted curve at half-maximal effect; % is scaled to controls: 0 for no effect and ±100 for the full control effect
#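 A549 ARE_Fluc cells in 5% FBS OPTI-MEM were exposed to compounds in concentration-response for 18-24 h at 37 deg C. Viability was read by CellTiter-Fluor fluorescence (Ex 405/Em 525) after 30 min, before the luciferase read.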
# Nrf2 activator: activators of Nrf2 (ARE) signaling. Potency, µM (titrated, usually from 46.1 µM), for inactives: top-dose activation, hits mostly activators. AREc32 ARE-luciferase reporter (MCF7-derived line), luminescence, 24 h. hit rate 0.31% among 410,000; also: potency is read from the fitted curve at half-maximal effect; % of control where 0% means no effect; nearly all actives have a fitted effect of over 65% in size
#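 For detection, Steady-Glo was added and plates sat 30 min at RT; before that, AREc32_Fluc cells grown overnight in OPTI-MEM/5% FBS had been treated with 23 nL compound for 24 hr at 37 deg C.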
# GRP78 ERSR act: ER stress response induction in glioma; U87-MG GRP78 promoter luciferase reporter, 16 h; AID 602332; Potency, µM, without a hit: at the top dose activation, most hits filed as activators; hit rate 0.02% among 420,000; also: potency is read from the fitted curve at half-maximal effect; series mostly up to about 76 µM; % of control where 0% means no effect; nearly all actives have a fitted effect of over 35% in size
#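 Stably transfected U87-MG glioma cells carrying a GRP78-based luciferase sensor; 16 h compound incubation. Luminescence end-point read 10 min after Bright-Glo addition at room temperature.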
# Nrf2 block: blocks Nrf2 signaling | A549 ARE-Fluc reporter, luciferase luminescence, 18-24 h | Potency, µM (top dose mostly 46 µM), for the others: top-dose activity change, negative = inhibition, hits mostly inhibitors | hit rate 2.1% among 360,000; also: potency is read from the fitted curve at half-maximal effect; % is scaled to controls: 0 for no effect and ±100 for the full control effect; nearly all actives have a fitted effect of over 60% in size
#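 A549 ARE_Fluc cells (5000/well, 5% FBS OPTI-MEM) pre-incubated 2 h, then treated with compounds 18-24 h at 37C/5% CO2 in concentration-response. CellTiter-Fluor viability read first; BugLite luciferase luminescence after 15 min at room temperature gives Nrf2 activity.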
# PTAP TSG101 blk: blocks PTAP/TSG101 interaction to inhibit HIV-1 budding. Fluorescence polarization, FITC-PTAP peptide / Tsg101 binding. Potency, µM (series often up to 115 µM), for the others: at the highest dose activity change, negative = inhibition, usual class: inhibitors. 340,000 tested, under 10 active; active = well fitted inhibition curve with a large enough effect in the main read-out, with a control signal flat, not every such curve was filed as active; inconclusive = small, poorly fitted or top-dose-only effect, or effect the other way, or a change in a side signal; inactive = no such curve, though single readings can be large or run the other way; also: potency is read from the fitted curve at half-maximal effect; % of control where 0% means no effect
#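 Fluorescence anisotropy tracks displacement of a FITC-tagged PTAP peptide (50 nM) from the Tsg101 binding domain (10 uM), following a 20 min room-temperature incubation at pH 7.5.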
# miR-21 reporter: miR-21 reporter, rising signal | HeLa miR-21 FLuc reporter, luciferase, 48 h | Potency, µM (doses to about 38.3 µM), inactives show at the top dose reporter change, positive = more light | 340,000 tested, under 10 active | AID 2288; active = well fitted rising curve with a large enough effect; inconclusive = small, poorly fitted or top-dose-only effect; inactive = no such curve, though single readings can be large or run the other way;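 note: % of control where 0% means no effect; miR-21 action dims this reporter so a rising signal means less miR-21 action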
#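 HeLa cells endogenously expressing miR-21, stably carrying CMV-driven firefly luciferase with a downstream miR-21 binding site, 2000 cells/well. Titrations up to approximately 40 uM, 48 hours; luciferase luminescence read.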
# Numbers without * were called inactive; ? = inconclusive; . = no result given. Shown are actives, neighbours in structure and some others; about 2.1% of the full set was active somewhere. Unless noted, calls follow the shape of the dose curve; as a rule, active = well fitted curve in the direction sought with a large enough effect; inconclusive = small, poorly fitted or top-dose-only effect, or another doubt; inactive = no such curve, though single readings can be large; an effect the other way counts as inactive or inconclusive.
SMILES,A549 tox,Nrf2 activator,GRP78 ERSR act,Nrf2 block,PTAP TSG101 blk,miR-21 reporter
CCc1ccc(NS(=O)(=O)c2ccc3[nH]c(=O)[nH]c3c2)cc1,-2%,0%,-2%,-11%,-1%,-3%
O=C(Nc1ccc(S(=O)(=O)N(Cc2ccccc2)c2ccccc2)cc1)c1ccccc1F,0%,-1%,-4%,6%,.,0%
O=C(Nc1ccc(S(=O)(=O)N(Cc2ccccc2)c2ccccc2)cc1)c1ccc(F)cc1,-9%,1%,-4%,23µM*,.,6%
COC(=O)C1=C(C)NC(C)=C(C(=O)O[C@H]2CCN(Cc3ccccc3)C2)C1c1cccc([N+](=O)[O-])c1 (some centres not stated),.,.,-5%,.,.,.
O=C(Nc1cccc(Cl)c1)c1ccc(F)c(S(=O)(=O)N2CCN(c3ccccn3)CC2)c1,-9%,4%,-4%,21µM*,-3%,3%
Cc1ccc(C(=O)Nc2cccc(S(=O)(=O)N3CCCCC3)c2)cc1[N+](=O)[O-],-15%,1%,-3%,16µM*,0%,.
COc1cc(C(=O)Nc2cccc(S(=O)(=O)N3CCCC3)c2)c([N+](=O)[O-])cc1OC,-2%,-1%,-4%,-1%,-2%,.
COc1ccc(C(=O)NC(=S)Nc2cccc(S(=O)(=O)N3CCOCC3)c2)cc1,2%,2%,-1%,7%,-5%,24%
CC(C)(C)c1ccc(C(=O)Nc2cccc(C(=O)N3CCOCC3)c2)cc1,?,2%,1%,8.2µM*,-6%,19%
CC(=O)Oc1ccc(-c2ccc(C(=O)Nc3cccc(S(=O)(=O)N4CCOCC4)c3)cc2)cc1,?,-1%,-6%,13µM*,-5%,?
Cc1nnc(CN(C)c2ncnc3ccc(-c4ccc5c(c4)OCO5)cc23)o1,2%,.,.,21%,.,.
O=C(COc1ccc(C(=O)c2ccc(F)cc2)cc1)Nc1cccc(S(=O)(=O)N2CCOCC2)c1,-13%,5%,-3%,23µM*,-4%,.
Cc1ccc(C(=O)Nc2cccc(S(=O)(=O)N3CCCCC3)c2)cc1S(=O)(=O)N1CCOCC1,-6%,0%,-1%,7.3µM*,-3%,.
O=C(Nc1cccc(Br)c1)c1ccc(Cl)c(S(=O)(=O)N2CCOCC2)c1,?,-1%,1%,10µM*,-4%,?
Cc1onc(-c2ccccc2)c1C(=O)NCCN1Cc2ccccc2OC(c2ccsc2)C1 (configuration not stated),.,.,-4%,.,.,.
COc1ccc(C2Nc3ccccc3C(=O)N2Cc2cccc(C(F)(F)F)c2)cc1COc1ccc(NC(C)=O)cc1 (configuration not stated),-15%,.,.,?,.,.
COC(=O)C1=C(C)NC(=O)/C1=C\c1cc(C)n(-c2c(C)cccc2C)c1C,21µM*,6%,-6%,23µM*,-9%,2%
O=C1c2ccccc2-c2onc3c(N4CCN(CCO)CC4)cc(N4CCN(C(=O)c5ccco5)CC4)c1c23,21µM*,9%,-19%,?,?,12%
O=C(c1ccc(CSc2nc3ccncc3[nH]2)cc1)N1CCCCCC1,-1%,0%,-8%,-2%,-7%,9%
O=C(c1ccc(CSc2nc3ccncc3[nH]2)cc1)N1CCN(c2cccc(Cl)c2)CC1,-26%,-3%,-8%,21µM*,-6%,23%
CO[C@@H]1[C@@H]([C@H](C)[C@@H]2O[C@@]3(CC[C@@](C)([C@H]4CC[C@@](C)([C@H]5O[C@H]([C@H]6O[C@](C)(O)[C@H](C)C[C@@H]6C)C[C@H]5O[C@H]5C[C@@H](OC)[C@H](OC)[C@@H](C)O5)O4)O3)C[C@@H](O)[C@@H]2C)O[C@@](O)(CC(=O)O)[C@H](C)[C@H]1OC,.,.,-6%,.,.,.

# 4 of the entries above in order of the Nrf2 activator value, lowest first:
SMILES	Nrf2 activator	GRP78 ERSR act	PTAP TSG101 blk	miR-21 reporter
COc1cc(C(=O)Nc2cccc(S(=O)(=O)N3CCCC3)c2)c([N+](=O)[O-])cc1OC	-1%	-4%	-2%	.
CCc1ccc(NS(=O)(=O)c2ccc3[nH]c(=O)[nH]c3c2)cc1	0%	-2%	-1%	-3%
O=C(COc1ccc(C(=O)c2ccc(F)cc2)cc1)Nc1cccc(S(=O)(=O)N2CCOCC2)c1	5%	-3%	-4%	.
O=C1c2ccccc2-c2onc3c(N4CCN(CCO)CC4)cc(N4CCN(C(=O)c5ccco5)CC4)c1c23	9%	-19%	?	12%

# High-throughput results deposited in PubChem BioAssay by National Center for Advancing Translational Sciences (NCATS).
